Consider two molecules from patent US6506739B1, “Bis-(N,N'-bis-(2-haloethyl)amino)phosphoramidates as antitumor agents” (dated 2003).

Assay [1] has as its system RPMI 8322 human melanoma cells. The assay can be described thus: Cell viability (CellTiter 96 dye conversion). Particulars: read-out: μM to 50% cell viability, 4 days with compound, 1% DMSO, triplicate. The protocol: RPMI 8322 human melanoma cells (ATCC) were grown at 37 C in MEM supplemented with 10% fetal bovine serum, 1% L-glutamate, and 0.1% gentamicin. The cells were plated at a density of 2×10^6 per well in 96-well microtiter plates. Twenty-four hours later, the medium was replaced with the same medium to which test compounds at final concentrations of 1 μM to 10 mM, and 1% DMSO had been added. The cells were grown in the presence of the compound for an additional 4 days. Each concentration of the compound was tested in triplicate. Cell viability was measured using a standard assay that monitors metabolic conversion of a dye (CellTiter 96™, Promega).

Assay [2] deals with MX-1 human mammary tumor. The assay can be described thus: Anti-tumor effects in mice, MX-1 xenograft. Particulars: nude mice with MX-1 tumor. From the text:
Female, 7 weeks old NCr-tu athymic nude mice were purchased from Charles River Laboratories (Raleigh, N.C.) and acclimated in the laboratories one week prior to experimentation. The animals were housed in microisolator cages, at five per cage, in a 12-hour light/dark cycle. The animals received filtered sterilized water and sterile rodent food d lieitum. Animals were observed daily, and clinical signs such as tumor shrinkage were noted.
Tumor Model. Thirty- to forty mg fragments of MX-1 human mammary tumor were implanted subcutaneously in mice near the right axillary area, using a 12-gauge trocar needle and allowed to grow. Tumors were allowed to reach 75-196 mg in weight (75-196 mm^3 mm in size) before the start of treatment.
Drug Treatment. Compound 3 was formulated fresh daily at a concentration of 10 mg/mL in 5% ethanol/14% propylene glycol/50% PBS. Compound 3 was administered intraperitoneally for five consecutive days at dosages of 55, 75, and 100 mg/kg/dose. Dosing solutions were administered to mice within 4 hours of formulation. Compounds were administered by exact body weight, with the injection volume being 0.1 mL/10 g body weight.
Tumor measurements. The tumors were measured, and the animals were weighed twice weekly, starting with the first day of treatment. Tumor volume was determined by caliper measurements (mm) and using the formula for an ellipsoid L×W^2/2=Volume, where L and W refer to the larger and smaller dimensions collected at each measurement. This formula was also used to calculate tumor weight, assuming a unit density (1 mm^3=1 mg).
Study duration was 28 days after tumor implantation. Any animal whose tumor reached 4 g in weight was sacrificed prior to study termination.

Where [3] appears, read: 55 mg/kg/dose intraperitoneally for five consecutive days.
[4] abbreviates: 75 mg/kg/dose intraperitoneally for five consecutive days.
Setting [5] is: 100 mg/kg/dose intraperitoneally for five consecutive days.

Turning to `NCCOP(=O)(N(CCCl)CCCl)N(CCCl)CCCl`, in assay [1], the IC50 is more than 500 µM.

Take `O=P(OCCO)(N(CCCl)CCCl)N(CCCl)CCCl`: the “Tumor Regression Partial Regression” value in assay [2] (setting [3]), in assay [2] (setting [4]) and in assay [2] (setting [5]) was 0 each time. Further, the Tumor-Free in assay [2] (setting [3]), in assay [2] (setting [4]) and in assay [2] (setting [5]) was 0/8 each time.
